Assay results from US20110224276A1, “OPTICAL ISOMER OF PHENYLPROPIONIC ACID AND ITS MEDICINAL USE” (priority 2008, published 2011).

Test system: hot plate pain threshold of mice
Experiment: hot plate pain threshold of mice
Type: in vivo
Conditions: 0.5 h after administration
Protocol: On the basis of preliminary test, 90 healthy Kunming species of Mus musculus albus are selected, female, weight 18˜22 g, […], and each group of 10 mice, said tested groups comprising:
Each group of animals is pasted for 12 h, but drinking ad libitum. Mice are placed on a homoiothermal hot plate (55±0.5[…]), and the time of occurrence of licking foot is recorded as pain threshold. Appropriate mice (whose reaction time of pain is less than 60 seconds) are selected and randomly divided into groups, and pain thresholds are measured twice before administration and the average value is used as base pain threshold. At 0.5 h and 1 hour after intragastric administration of corresponding drugs, the pain threshold of each mouse is measured (if there are no reaction of pain in 60 seconds, then the threshold is considered as 60 second).
Using Microsoft EXCEL software, the average value of pain threshold of each tested group and the average value of control group are performed t-test analysis, and P<0.05 is considered as statistically significant difference.

Q: How did the “pain threshold(s) 0.5 h” value (40 mg/kg ip) turn out when `C[C@@H](C(=O)O)c1ccc2c(c1)CC(=O)c1ccccc1S2` [R, R-10,11-dihydro-alpha-methyl-10-oxo-dibenzo[b,f]tiazem-2-acetic acid] was run?
A: 20.0 ± 15.7 s

Q: And the “pain threshold(s) 0.5 h” value (80 mg/kg ig)?
A: 17.5 ± 15.7 s
